Amino acid sequences for entries named in this document (tags omitted). A change or cut given only in a name is not applied to a line headed by its entry.
UniProt P51570: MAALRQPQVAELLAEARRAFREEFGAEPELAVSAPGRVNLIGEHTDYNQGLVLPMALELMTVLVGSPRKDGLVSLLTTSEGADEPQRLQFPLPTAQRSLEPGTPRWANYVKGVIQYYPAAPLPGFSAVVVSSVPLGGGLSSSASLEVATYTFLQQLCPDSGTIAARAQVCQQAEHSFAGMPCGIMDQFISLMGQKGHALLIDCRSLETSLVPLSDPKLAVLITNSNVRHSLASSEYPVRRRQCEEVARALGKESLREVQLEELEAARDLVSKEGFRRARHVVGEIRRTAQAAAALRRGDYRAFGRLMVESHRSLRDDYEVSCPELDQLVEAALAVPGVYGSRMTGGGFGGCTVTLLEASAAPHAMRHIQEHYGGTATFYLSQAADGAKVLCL

The assay has as its target GALK (Homo sapiens (Human), UniProt P51570). Kind of assay: primary qHTS assay for inhibitors of GALK (KinaseGlo ATP depletion). The format is biochemical. The following applies: 5 nM GALK, 35 μM ATP, 1 hr incubation. On the procedure: Assay details and protocol: The primary assay monitored ATP depletion using Promega's KinaseGlo™ technology, where ATP levels are measured through luminescence generated from firefly luciferase, a bioluminescent ATP-dependent enzymes. […] This was used as the positive control for the assay. […]
(Quantitative high-throughput screening tests each substance at several concentrations.)
On to `O=C1CCCC2=C1C1(CCCC1)N=C(Nc1nc3cc(-c4ccccc4)ccc3o1)N2` [Compound 25], for which half-maximal inhibition (IC50) required 18.8 µM. That is a double-digit micromolar value. Then `O=C1CCCC2=C1C(c1cccnc1)N=C(Nc1nc3ccccc3o1)N2` (centres unmarked) [Compound 49], with 76.9 µM. `CC1=C(C(=O)Nc2ccc(C)cc2)C(c2ccccc2Br)N=C(Nc2nc3ccccc3o2)N1` (centres unmarked) [Compound 79] showed an IC50 of 4.11 µM. Under `COc1ccccc1NC(=O)C1=C(C)NC(Nc2nc3ccccc3o2)=NC1c1ccccc1Br` (centres unmarked) [Compound 80] stands 3.66 µM; under `CC1=C(C(=O)Nc2nccs2)C(c2ccccc2Br)N=C(Nc2nc3ccccc3o2)N1` (centres unmarked) [Compound 85], 4.11 µM.

What is called IC50 is the point on the concentration scale where inhibition reaches its midpoint. High values mean weaker potency, low ones greater potency.

The record behind these values is patent US9447087B2, “Galactokinase inhibitors for the treatment and prevention of associated diseases and disorders” (UNIVERSITY OF UTAH RESEARCH FOUNDATION, priority 2011, dated 2016).
